Measurements from US7837757B2, “Enhanced abscisic acid and fertilizer performance” (Valent BioSciences Corporation, priority 2007, dated 2010).

Tested on: tomato leaf
Details: in vivo

## (S)-5-(1-hydroxy-2,6,6,-trimethyl-4-oxo-2-cyclohexen-1-yl)-3-methyl-(2Z,4E)-pentadienoic acid [ABA, reference compound]
  Number of Injured leaves: 0.0
  Number of injured leaf: 0.0
